Measured values taken from PubChem BioAssay AID2517 (National Center for Advancing Translational Sciences (NCATS), 2010).
Only a part is listed here, and it is no random draw. Records with an inconclusive call do not appear. Activity calls are given as the source filed them. Calls come from the whole dose curve; as a rule, active = well fitted inhibition curve with a large enough effect; inconclusive = small, poorly fitted or top-dose-only effect; inactive = no such curve, though single readings can be large or run the other way.

Sequences of proteins named here, by UniProt entry; tags and fusion partners are left off.
UniProt P27695, whole entry: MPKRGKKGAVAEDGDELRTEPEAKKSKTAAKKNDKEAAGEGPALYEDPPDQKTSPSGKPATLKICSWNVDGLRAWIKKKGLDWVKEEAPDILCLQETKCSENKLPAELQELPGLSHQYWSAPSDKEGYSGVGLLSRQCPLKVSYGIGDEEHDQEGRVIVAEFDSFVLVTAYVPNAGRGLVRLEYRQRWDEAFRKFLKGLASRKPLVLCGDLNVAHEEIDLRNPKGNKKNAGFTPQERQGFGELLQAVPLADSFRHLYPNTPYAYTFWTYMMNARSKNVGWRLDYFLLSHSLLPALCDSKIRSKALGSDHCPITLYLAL

Target: DNA repair nuclease/redox regulator APEX1 (Homo sapiens) (UniProt P27695)
Test: qHTS Assay for Inhibitors of the Human Apurinic/apyrimidinic Endonuclease 1 (APE1);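 note: plate controls were vehicle for no effect and reference inhibitor for full effect; nearly all actives have a fitted effect of over 55% in size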
Settings: recombinant APE1, TAMRA/BHQ-2 abasic DNA cleavage fluorescence; at 65.8 µM (top of the series)

| SMILES | activity change, negative = inhibition |
| --- | --- |
| Cc1nc2ccc3ccccc3c2s1.O=[N+]([O-])c1cc([N+](=O)[O-])c(O)c([N+](=O)[O-])c1 | inactive: -2.66% |
| CC(C)N(CCCl)C(C)C | inactive: -1.71% |
| O=[N+]([O-])c1cc([N+](=O)[O-])c(-n2nnc3ccccc32)c([N+](=O)[O-])c1 | inactive: 1.09% |
| CP(=O)(Nc1ccc(SC(F)(F)F)cc1)Oc1ccccc1 (stereo not drawn) | inactive: 14.1% |
| CCCOc1ccc(NP(C)(=O)Oc2ccc(Cl)cc2)cc1 (stereo not drawn) | inactive: -4.48% |
| OCCN(CCO)CCO | inactive: -1.94% |
| COc1ccccc1OP(C)(=O)Nc1c(C)cccc1C (stereo not drawn) | inactive: -1.31% |
| CN1CCCCC1COC(=O)C1(O)c2ccccc2CCc2ccccc21 (stereo not drawn) | inactive: 2.17% |
| O=[N+]([O-])c1cc([N+](=O)[O-])c(Nc2nnnn2CCO)c([N+](=O)[O-])c1 | inactive: -0.775% |
| CC1=NCCc2c1[nH]c1ccccc21.O=[N+]([O-])c1cc([N+](=O)[O-])c(O)c([N+](=O)[O-])c1 | inactive: -1.62% |
| Cc1ccc([N+](=O)[O-])cc1[N+](=O)[O-] | inactive: 3.73% |
| O=[N+]([O-])OCC(CO[N+](=O)[O-])(CO[N+](=O)[O-])CO[N+](=O)[O-] | inactive: 4.97% |
| O=[N+]([O-])c1cccc([N+](=O)[O-])c1 | inactive: -0.967% |
| CP(=O)(Nc1cccc(Br)c1)Oc1ccccc1 (stereo not drawn) | inactive: 4.8% |
| Cc1cc(C)cc(OP(C)(=O)Nc2ccccn2)c1 (stereo not drawn) | inactive: 2.29% |
| CCOC(=O)c1ccc(NP(C)(=O)Oc2cc(C)cc(C)c2)cc1 (stereo not drawn) | inactive: 17.6% |
| Cc1cc(C)cc(OP(C)(=O)Nc2ccc(C)cc2C)c1 (stereo not drawn) | inactive: 5.4% |
| COc1ccccc1OP(C)(=O)Nc1cccc(Br)c1 (stereo not drawn) | inactive: -4.13% |
| O=[N+]([O-])[O-].[NH4+] | inactive: -1.15% |
| CCN(CC)CCCOC(=O)C(O)(c1ccccc1)c1ccccc1 | inactive: 3.46% |
| Cc1cc(C)cc(OP(C)(N)=O)c1 (stereo not drawn) | inactive: -2.32% |
| COc1ccc(OP(C)(=O)Nc2cccc(F)c2)cc1 (stereo not drawn) | inactive: -0.139% |
| COc1ccccc1OP(C)(=O)Nc1cc(Cl)ccc1C (stereo not drawn) | inactive: -4.6% |
| Cc1ccc(NP(C)(=O)Oc2ccccc2)c(C)c1 (stereo not drawn) | inactive: -10.4% |
| COc1ccccc1OP(C)(=O)Nc1ccc(C)cc1 (stereo not drawn) | inactive: -6.83% |
| CCOC(=O)c1ccc(NP(C)(=O)Oc2ccccc2)cc1 (stereo not drawn) | inactive: 6.16% |
| O=[N+]([O-])c1ccc2c(c1)C=Nc1ccccc1O2 | inactive: 10.1% |
| O=C(O)C(O)(c1ccccc1)c1ccccc1 | inactive: -3.1% |
